The nature of the data set: Dispersion stability test in water (absorbance at 650 nm). To be noted: 10 mg/mL in water, stirred and suspended, FIG. 6. Type of data set: physicochemical. How it is done: MEL-B or MEL-C at a concentration of 10 mg/mL was added to water, stirred and suspended. Its absorbance at 650 nm was measured.

Entries after “also recorded” stand apart in the source; their conditions may differ.

Regarding mannosylerythritol lipid B [MEL-B], the dispersion stability entry is “particularly excellent in dispersion stability; also recorded: more excellent than MEL-A in water dispersion stability”.

For the origin of these results see patent publication US20110257116A1, “BIOSURFACTANT-CONTAINING SKIN CARE COSMETIC AND SKIN ROUGHNESS-IMPROVING AGENT” (National Institute Of Advanced Industrial Science And …, priority 2005, published 2011).
